The text below walks through data of PubChem BioAssay AID1259374 (The Scripps Research Institute Molecular Screening Center, 2018).

Amino acid sequences for entries named in this document (tags omitted).
UniProt O75030, whole entry: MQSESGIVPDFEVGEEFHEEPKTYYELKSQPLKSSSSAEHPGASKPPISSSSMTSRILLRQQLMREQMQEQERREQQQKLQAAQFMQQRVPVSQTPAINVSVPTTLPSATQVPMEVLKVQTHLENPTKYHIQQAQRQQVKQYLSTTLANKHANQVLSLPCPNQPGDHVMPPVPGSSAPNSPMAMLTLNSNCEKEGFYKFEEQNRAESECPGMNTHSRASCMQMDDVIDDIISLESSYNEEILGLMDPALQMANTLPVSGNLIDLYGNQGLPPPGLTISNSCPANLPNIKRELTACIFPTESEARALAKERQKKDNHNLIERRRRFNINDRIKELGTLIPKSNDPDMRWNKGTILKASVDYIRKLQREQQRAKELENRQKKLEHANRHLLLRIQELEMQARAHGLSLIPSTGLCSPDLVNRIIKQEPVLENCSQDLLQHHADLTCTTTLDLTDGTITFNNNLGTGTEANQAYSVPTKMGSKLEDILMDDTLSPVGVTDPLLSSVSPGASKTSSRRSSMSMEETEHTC

Molecules are shown by their SMILES. The entries are a selection whose mix differs from that of the whole data set. Some tests of the compounds listed are not included; inactive here does not mean inactive elsewhere. Activity calls are given as the source filed them. Cut-off read from the data, not from the text of the source: active = inhibition above about 50%; inactive = the rest.

For this test, the target named is Microphthalmia-associated transcription factor (Homo sapiens) (UniProt O75030). In words: MITF inhibitors, primary screen, biochemical, AlphaScreen, human (AID 1259374).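 Note: 0% = vehicle wells with protein.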 As to conditions: AlphaScreen MITF homodimerization, bead proximity signal; at 2.6 µM; stronger effect = higher value.
Turning to `COc1ccc(C(=O)NCC2(N(C)C)CCCCC2)cc1`, the inhibition is inactive: 17.8%.

Consider `CC(C)N(CCOC(=O)C(O)(c1ccccc1)c1ccccc1)C(C)C`, for which the inhibition is inactive: 14.2%.

For the compound `CC(CCN(C)C)OC(=O)C(O)(c1ccccc1)c1ccccc1` (stereo not given), the inhibition is inactive: -7.16%.

Consider `CN(C)C1(CNC(=O)c2n[nH]c3ccccc23)CCCCC1`, for which the inhibition is inactive: -12%.

`CN(C)C1CCCC1OC(=O)C(O)(c1ccccc1)c1ccccc1` (stereo not given): the inhibition was inactive: -5.84%.

Consider `CN(C)c1ccc(C(=O)NCC2(N(C)C)CCCCC2)cc1`, for which the inhibition is inactive: 16.1%.

For the compound `CN1CCCC(COC(=O)C(O)(c2ccccc2)c2ccccc2)C1` (stereo not given), the inhibition was inactive: -11.7%.

For `COc1cc(SC)ccc1C(=O)NCC1(N(C)C)CCCCC1`, the inhibition was inactive: 7.33%.

Take `O=C(NCC1(N2CCOCC2)CCCCC1)c1cnc(Cl)c(Cl)c1`: the inhibition was inactive: -0.86%.

For `CC(C)Oc1ccc(C(=O)NCC2(N(C)C)CCCCC2)cc1`, the inhibition is inactive: -6.42%.

Take `CN(C)c1cccc(C(=O)NCC2(N(C)C)CCCCC2)c1`: the inhibition is inactive: -3.25%.

`CN1C2CCC1CC(OC(=O)C(O)(c1ccccc1)c1ccccc1)C2` (stereo not given): the inhibition is inactive: -7.41%.

Turning to `CN(C)C1(CNC(=O)c2c(F)cccc2F)CCCCC1`, the inhibition was inactive: 3.33%.

For the compound `COc1cccc(C(=O)NCC2(N3CCCCC3)CCCCC2)c1`, the inhibition is inactive: -1.28%.

Turning to `COc1ccc(Cl)cc1C(=O)NCC1(N(C)C)CCCCC1`, the inhibition was inactive: 11.3%.

What is called inhibition is the relative decrease from the control value, in per cent.
